## Binding of CDR-mutated scFvs to a peptide of the spike HR2 region

The measurements come from Li et al. 2023 (doi:10.1038/s41467-023-39022-2) through the FLAb antibody collection.

Binding partner: SARS-CoV-2 spike HR2 peptide, sequence PDVDLGDISGINAS.

Parent scFv Ab-14: VH joined to VL by three GGGGS repeats. Changes lie in the light chain CDRs alone.
VH: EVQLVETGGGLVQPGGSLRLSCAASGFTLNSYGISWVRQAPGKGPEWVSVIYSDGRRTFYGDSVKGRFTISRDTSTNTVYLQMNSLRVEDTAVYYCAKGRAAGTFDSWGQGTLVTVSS
VL: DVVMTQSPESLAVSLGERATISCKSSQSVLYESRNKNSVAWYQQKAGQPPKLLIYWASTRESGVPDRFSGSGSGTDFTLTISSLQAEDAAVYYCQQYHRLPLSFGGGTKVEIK

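Phage display of a naive human antibody library on the peptide gave the parent. The variants were designed computationally from a first round of random CDR variants and then made and measured. Their group label is 14L_Ctrl (Ctrl: baseline library sampled from a position-specific scoring matrix, with some repeated check sequences). AlphaSeq pools MATa yeast showing the antibodies with MATalpha yeast showing the peptide. After mating in shaken culture at 30 °C for 16 h, diploids were selected and their barcode pairs sequenced. The ratio of observed to expected reads was calibrated, replicate by replicate, on BCL2-family standards whose Kd was known from biolayer interferometry. There are six technical replicates.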

The parent's light chain CDRs are KSSQSVLYESRNKNSVA, WASTRES, QQYHRLPLS; each variant's own CDRs replace them letter for letter. Scale: log10 of Kd in nM, estimated from mating counts; low values are strong binders. A mean of the replicates is given; it leaves out those without a signal. "ND" marks a missing value. The strain was present, yet no cells mated with the target were sequenced in that replicate, which points to weak or no binding.

CDR-L1	CDR-L2	CDR-L3	log10 Kd (nM) by replicate	log10 Kd (nM), mean	signal with controls
KSSQSVLYESRNKNSVA	EASTRES	QQYTRLPLS	0.75 0.12 0.37 ND ND 0.90	0.53	0/18
KSCQSVLYESRNKNSVA	WASTRES	QQYHRLPLS	ND ND ND ND ND ND	ND	2/18 (1.43)
KSSQSVLYESRNKNSVA	NGSTREM	QQYDGLPLS	2.16 2.50 1.24 1.19 1.38 1.23	1.62	6/18 (3.03)
KFTQSVLYESRNKNSVA	QASTRES	QQYHRLPLS	-0.01 -0.21 -0.26 -0.49 -0.38 0.00	-0.23	1/18 (2.78)
KSSGSVLYEDTNKNSVA	WASTRES	QQYHRLPLS	1.98 2.10 2.28 4.04 2.19 3.39	2.66	0/18
KSSQSVLDESTNKNSVA	EASTRES	QQYFRLPLS	0.57 0.29 0.19 0.18 0.23 0.38	0.31	0/18
YLSQSVLYESRKKNSVA	YGSTREP	QQYHKLPLS	1.18 1.34 1.18 0.78 0.96 0.62	1.01	0/18
KSSHSVLYESTLKNSVA	WASTRES	QQYHRLPLS	2.15 2.80 1.83 1.69 2.04 1.80	2.05	0/18
KSSQSVLYESRNKNSVA	WHSTRES	QQYHRLPLS	ND ND ND ND ND ND	ND	0/18
KNTQSYLYESRNKNSVA	WASTRES	QQYHRLPLS	4.08 ND ND ND ND 2.08	3.08	0/18
KSSQSVLYESRNKNSVA	WGSTRES	QQYHRLPLS	3.42 2.63 2.17 2.42 2.35 2.15	2.53	1/18 (2.22)
KSSQGVLLESRNKNSVR	DASTRES	QQYHRLPLS	ND ND ND ND ND ND	ND	0/18
KSSQSVLYESGNGNSVA	WPSTRES	QQYHRLPLS	ND ND ND ND ND ND	ND	0/18
MASDSTLYESPNKNSVA	WASTRER	QQYHRLPLS	1.38 0.96 2.16 2.05 2.54 1.11	1.70	1/18 (2.29)
KSDQSVLYESRNKQSVA	SASTRES	QQYHRLPLS	0.54 0.82 0.05 0.33 0.23 0.82	0.46	1/18 (2.10)
RSSPSVLYESRNHNSVA	SASTCEF	QQYHRLPLS	ND ND ND ND ND ND	ND	1/18 (2.12)
KYSQSVLDESRNKNSVA	WASTRES	QQYHRLPLS	1.12 0.76 0.48 0.53 0.82 0.85	0.76	1/18 (2.61)
KSSPSVLYESFNKNFVA	WASTRES	QQYHRLPLS	1.59 2.02 1.62 1.78 1.82 3.14	2.00	0/18
KSSQSVLYESRNKNSVA	QASTRFS	QQYHRLPNS	3.00 2.19 2.66 2.24 1.80 2.77	2.44	0/18
KSSQPVLYESRNKNSVA	WASTRMS	QQYHRLVLS	ND ND ND ND ND ND	ND	0/18
KSSQSVEYESRNKNHVA	WASTRES	QQVHRLPDS	ND 1.84 3.99 ND 2.70 ND	2.84	1/18 (1.80)
KSSQSVLGESRNKNSVA	WALTRES	GKYHRLPLS	ND ND ND ND ND ND	ND	0/18
KMMQSLLYESRNKNSVA	EASTRES	QQYHRLPLS	0.15 0.19 0.13 -0.02 0.01 0.09	0.09	1/18 (2.04)
KSDTIVWYESRNKNSVA	WASTRES	QQYHRLPLS	ND ND 2.90 ND ND ND	2.90	3/18 (2.36)
KMSISVLPESRNKNSVA	QAMTRES	QLYHRLPLS	ND 3.25 ND 2.61 2.23 1.93	2.50	0/18
KFSQSVLYESRNKNSVA	EASTRES	NQYHRLPLS	ND 4.01 3.17 ND 2.80 3.27	3.31	0/18
KVCQSVLYESRNKNSVA	WASTRES	QQYHRLPLS	1.53 1.16 1.81 1.76 2.01 1.48	1.62	0/18
KSSQSGLYESRNKNSVA	GASTRES	QWYHRLPLS	0.62 0.51 0.43 0.95 0.41 0.67	0.60	1/18 (2.48)
KSSQSVEYERRNKNSVA	DADTRES	QQYHRLPLS	1.97 1.46 0.80 1.48 1.67 1.47	1.47	0/18
KSSQSVLYEFPNKNSVA	GASTRCS	QQYHRLPLS	0.64 0.61 0.44 0.40 0.99 0.83	0.65	0/18
KLSQYVLYESRNKNSVA	WASTRES	IQYHRLPLS	1.94 1.28 0.97 1.46 1.47 1.41	1.42	0/18
KSSQSVLYESNNKNSVA	WAVTRES	QQYHRLPLS	1.65 1.34 0.88 1.37 1.01 1.56	1.30	0/18
KSSQSVLYESRNKNSVA	WASTRES	QQYHRDPLS	ND ND ND ND ND ND	ND	1/18 (2.70)
KSSQSVLDESRNKNSVA	WALTRES	QQCHRLPLS	ND ND ND ND ND ND	ND	0/18
KSSQSVLYESGEKNSVA	WASTRES	QQYHRLPLS	1.99 2.63 ND 2.43 2.45 ND	2.37	0/18
KSSSSTLYESRNKNSVA	WASTRES	QQYHRLPLS	0.61 0.69 0.94 0.97 0.40 1.17	0.80	0/18
KFSQPVLYESRNKNSVA	WASTRES	QQYHRLPLS	1.59 1.09 0.90 0.69 0.50 1.50	1.04	1/18 (1.99)
KSSQSVLKESRNKNSVA	DASTRES	QQYHRLPLS	0.50 0.08 0.42 0.27 0.37 0.45	0.35	0/18
SSPQSVLYESRNKNSVA	WASNRES	QQYHRLPLS	ND ND ND ND ND 2.56	2.56	0/18
KSSQSVLYESCNCNSVA	AASTRES	QQVHRLPLS	ND ND ND ND ND ND	ND	0/18
KSSQSVLYESRNANSVA	SASTRES	QQYHRLPLS	0.72 1.57 2.65 1.18 1.50 0.91	1.42	0/18
KSSQQVLYESMNKNSVA	WASTRES	QTYHRLPLS	ND ND ND ND ND ND	ND	1/18 (1.49)
KSSQSVLDESRNKNSVA	WASTRES	QQYHRLPLF	1.64 3.33 1.42 ND 1.37 1.64	1.88	1/18 (2.61)
KSSQSVLIESFNKNSVA	WASTRES	QHYHRLPLS	ND 2.28 ND ND 3.03 ND	2.66	2/18 (2.61)
KSSISWLYNSENKNSVA	WASTRES	QQYHRLPLS	1.90 ND ND ND 1.42 1.64	1.65	0/18
KSSQSVLYQERNKNNVA	KASTRES	YQYHELPLS	ND 1.34 0.82 1.45 1.55 1.24	1.28	0/18
KSSQSVLYESRNKNSVA	DASIRRS	QQYHRLPLS	0.93 0.97 0.82 0.66 0.78 0.78	0.83	1/18 (2.33)
KISQSVLYEDRNKNSVA	DASTRES	QQYHRYPLS	0.65 0.29 0.45 0.36 0.26 0.58	0.43	2/18 (4.01)
KSSQSKIYYSRNKNSVA	GAQTRES	QQYHRLPLS	ND ND ND 1.80 2.28 ND	2.04	0/18
KSSESDTYESRNYNSVA	NASTRES	QQYHRLFLS	1.52 0.82 0.61 1.35 ND 0.84	1.03	0/18
KSSISVLYESTNKNSVA	WASTREV	QQYHRLPLS	1.77 1.41 1.37 1.83 1.59 1.28	1.54	0/18

5 of these entries, quoted again:

{"CDR-L1": "KSSISVLYESTNKNSVA", "CDR-L2": "WASTREV", "CDR-L3": "QQYHRLPLS", "log10 Kd (nM) by replicate": "1.77 1.41 1.37 1.83 1.59 1.28", "log10 Kd (nM), mean": "1.54", "signal with controls": "0/18"}
{"CDR-L1": "KSSQSVLYESRNKNSVA", "CDR-L2": "EASTRES", "CDR-L3": "QQYTRLPLS", "log10 Kd (nM) by replicate": "0.75 0.12 0.37 ND ND 0.90", "log10 Kd (nM), mean": "0.53", "signal with controls": "0/18"}
{"CDR-L1": "KSSQSVLYESRNANSVA", "CDR-L2": "SASTRES", "CDR-L3": "QQYHRLPLS", "log10 Kd (nM) by replicate": "0.72 1.57 2.65 1.18 1.50 0.91", "log10 Kd (nM), mean": "1.42", "signal with controls": "0/18"}
{"CDR-L1": "KSSQSVLGESRNKNSVA", "CDR-L2": "WALTRES", "CDR-L3": "GKYHRLPLS", "log10 Kd (nM) by replicate": "ND ND ND ND ND ND", "log10 Kd (nM), mean": "ND", "signal with controls": "0/18"}
{"CDR-L1": "KSSQSGLYESRNKNSVA", "CDR-L2": "GASTRES", "CDR-L3": "QWYHRLPLS", "log10 Kd (nM) by replicate": "0.62 0.51 0.43 0.95 0.41 0.67", "log10 Kd (nM), mean": "0.60", "signal with controls": "1/18 (2.48)"}

The range of this assay differs from that of the first round, and the authors advise against merging the two. Of ten entries with the parent sequence, four were seen in most replicates (averages 0.34 to 2.37), three in one and three in none, so single entries are noisy. Empty control strains, which show no peptide, gave a signal in 4% of pairings with all light chain designs; the median was 2.64 and 95% of these signals were weaker than 1.59. No background was subtracted. Also given: how often the same scFv was detected with the empty control strains, with their mean in brackets. In the paper, a design with two or fewer of six values counts as a poor binder.